Data taken from PMC9199882 (Clinical and Translational Science, 2022).

Conditions: for AUCinf, G mean (GCV%): warfarin 5 mg oral single dose alone (cocktail with midazolam); for AUCinf, adjusted G mean / AUClast, adjusted G mean: linear mixed model
[1] = warfarin 5 mg oral + asciminib 40 mg b.i.d. steady-state, day 11, plasma
[2] = warfarin 5 mg oral alone, day 1, plasma
[3] = warfarin + asciminib 40 mg b.i.d. steady-state

SMILES: CC(=O)C[C@H](c1ccccc1)c1c(O)c2ccccc2oc1=O [R‐Warfarin, R‐warfarin]
- AUClast, G mean (GCV%) [1]: 12000 (25.3) ng × h/ml
- AUClast, G mean (GCV%) [2]: 9700 (24.7) ng × h/ml
- AUCinf, G mean (GCV%) (day 1, plasma): 10500 (22.0) ng × h/ml
- AUCinf, adjusted G mean [3]: 13,500 ng × h/ml
- AUClast, adjusted G mean [3]: 12,000 ng ×h/ml
- AUCinf, adjusted G mean (warfarin alone): 10,800 ng × h/ml
- AUClast, adjusted G mean (warfarin alone): 9700 ng·h/mL

SMILES: CC(=O)C[C@@H](c1ccccc1)c1c(O)c2ccccc2oc1=O [S‐Warfarin, S‐warfarin]
- AUClast, G mean (GCV%) [1]: 9010 (23.4) ng × h/ml
- AUClast, G mean (GCV%) [2]: 6480 (22.8) ng × h/ml
- AUCinf, G mean (GCV%) (day 1, plasma): 7350 (23.9) ng × h/ml
- AUCinf, adjusted G mean [3]: 10,300 ng × h/ml
- AUClast, adjusted G mean [3]: 9010 ng·h/mL
- AUCinf, adjusted G mean (warfarin alone): 7350 ng·h/mL
- AUClast, adjusted G mean (warfarin alone): 6480 ng·h/mL

Where two headings read alike, the source gives them in different places.
